Antibody variant affinities, Ab-14 heavy chain, assay B

The measurements come from Li et al. 2023 (doi:10.1038/s41467-023-39022-2) through the FLAb antibody collection.

Binding partner: SARS-CoV-2 spike HR2 peptide, sequence PDVDLGDISGINAS.

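Phage display of a naive human antibody library on the peptide gave the parent. The variants were designed computationally from a first round of random CDR variants and then made and measured. Their group label is 14H_GP_HC (GP: Gaussian process model; HC: hill climbing; a sequence that several methods proposed may carry one label only). In AlphaSeq, yeast of one mating type display the scFv and yeast of the other type display the target. Mating (16 h, 30 °C) was followed by selection of diploids and sequencing of their barcodes. Read counts were normalised to the haploid input and turned into Kd by a linear fit to BCL2-family pairs of known affinity, for each replicate. The assay was run in six technical replicates.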

The variants keep the light chain, the linker and the frameworks of Ab-14 (scFv order VH, the linker GGGGSGGGGSGGGGS, VL).
VH: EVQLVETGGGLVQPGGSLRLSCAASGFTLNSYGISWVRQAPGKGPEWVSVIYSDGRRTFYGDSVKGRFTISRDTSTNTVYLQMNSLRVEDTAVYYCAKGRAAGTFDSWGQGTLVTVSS
VL: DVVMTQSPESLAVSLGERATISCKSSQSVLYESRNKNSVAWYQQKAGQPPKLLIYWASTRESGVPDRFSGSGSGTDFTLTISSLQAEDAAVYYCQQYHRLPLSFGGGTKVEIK

Variants are written as CDR1, CDR2 and CDR3 of the heavy chain (limits as in the source). Parent: GFTLNSYGIS, VIYSDGRRTFYGDSVK, GRAAGTFDS.
Scale: log10 of Kd in nM, estimated from mating counts; low values are strong binders.
The mean shown is taken over the replicates in which the pair was detected.
An entry "nd" has no value in the source: the pair was not observed among the diploids in that replicate. This suggests poor binding but is not conclusive.
A sequence measured in both rounds can read differently, since the two assays cover different ranges.
Three control strains display no target. For all heavy chain designs, 1% of the pairings with them gave a signal, with a median of 2.08 and one signal in twenty below 0.84, so weak values seen in few replicates may be background. For each scFv, signals with the empty controls are counted beside the result.
The authors' rule: three or more of the six replicates give a measured affinity, fewer mean a poor binder.
Of ten entries with the parent sequence, four were seen in most replicates (averages 0.34 to 2.37), three in one and three in none, so single entries are noisy.

With GFDLNSYGIS, VIYSDGRRTFYGDSVK, GRQAGTFES the result was 1.78, 0.80, 2.16, 0.99, 0.90, 2.16 (mean 1.46; controls 1 of 18).
With GFTLNEYGIS, VIYSDGRRTFYGDSVK, GKTAGTFIS the result was nd, nd, nd, nd, nd, nd (controls 0 of 18).
With GFTLNEYGIS, VIYSDGRRTFYGQSVK, GRAAVTFDK the result was nd, nd, nd, nd, nd, nd (controls 0 of 18).
With GFTLNEYGIS, VIYSDGRRTFYGDSVK, GRAAETFIK the result was nd, nd, nd, nd, nd, nd (controls 0 of 18).
With IFTLESYGIS, VIYADGRRTFYGDSVK, GRAAGTFDS the result was 0.86, nd, nd, nd, nd, nd (controls 0 of 18).
With GFTLNSYGIS, VIYSDGRRTFYSDSVK, GAAVGTFDS the result was nd, nd, nd, nd, nd, nd (controls 0 of 18).
With GFTLNEYGIS, VIYSDGRRTFYDDSVK, GRAGGTFDS the result was nd, 1.50, 3.29, 0.85, 2.40, 2.11 (mean 2.03; controls 0 of 18).
With GFWLNEYGIS, VIYSDGRRTFYKDSVK, GRFAGTFDS the result was nd, 0.70, 1.21, 2.46, 2.39, nd (mean 1.69; controls 0 of 18).
With GFSLNSYGIS, VIYSDGRRTFYDDSVK, GRAGGTFDS the result was 0.01, nd, nd, nd, 0.90, nd (mean 0.46; controls 0 of 18).
With GFTLNQYGIS, VIYSDGQRTFYSDSVK, GRAAGTFTS the result was nd, nd, 1.48, nd, nd, 1.07 (mean 1.28; controls 0 of 18).
With GFTLNSYGIS, VIYSDGRRTFYSDSVK, GQMAGTFDT the result was 0.42, 0.04, 0.18, 0.31, 0.33, 0.53 (mean 0.30; controls 0 of 18).
With GFQLNSYGIS, VIYSDGMRTFYGDSVK, GRIAGTFDS the result was 1.59, nd, 1.75, nd, 1.57, nd (mean 1.63; controls 0 of 18).
With GFRLNSYGIS, VIYSDGRRTFYDDSVK, GKLAGTFDS the result was nd, nd, 1.67, nd, nd, nd (controls 0 of 18).
With GFTLDSYGIS, VIYSDGRRTFYIDSVK, GRAAGTFTS the result was nd, nd, nd, nd, nd, nd (controls 0 of 18).
With GFTLNTYGIS, VIYSDGRRTFYSDSVK, GTAAGTFDS the result was 2.06, 2.00, 1.51, nd, 1.27, 1.23 (mean 1.61; controls 0 of 18).
With GFTLNEYGIS, VIYSDGRRTFYGDSVK, GKIAGTFDQ the result was 0.44, 0.42, 0.38, 0.25, 0.17, 0.61 (mean 0.38; controls 0 of 18).
With GFTLNSYGIS, VIYSDGKRTFYSDSVK, GKAGGTFDS the result was 0.02, 0.64, 1.47, 1.18, 0.19, 0.75 (mean 0.71; controls 0 of 18).
With GFTLNDYGIS, VIYSDGRRTFYIDSVK, GAAAGTFDS the result was 0.84, 0.65, 0.42, 0.53, 0.39, 0.61 (mean 0.57; controls 1 of 18).
With GFDLNSYGIS, VIYSDGRRTFYGDSVK, GRAAWTFQS the result was nd, nd, nd, nd, nd, nd (controls 0 of 18).
With GFDLNSYGIS, VIYSDGRRTFYHDSVK, GQLAGTFDS the result was 1.40, 2.02, 0.79, 0.17, 0.59, 0.46 (mean 0.90; controls 0 of 18).
With GFQLNEYGIS, VIYSDGRRTFYMDSVK, GRFAGTFDS the result was nd, 1.27, nd, 1.50, 2.19, 1.38 (mean 1.58; controls 0 of 18).
With GFDLNQYGIS, VIYSDGTRTFYSDSVK, GRAAGTFDS the result was 0.45, -0.40, 0.26, -0.10, -0.15, -0.23 (mean -0.03; controls 0 of 18).
With GFDLNSYGIS, VIYSDGRRTFYGDDVK, GRAAGHFRS the result was nd, nd, nd, nd, nd, nd (controls 0 of 18).
With GFTLNEYGIS, VIYSDGRRTFYGDSVK, GHAAGTFDS the result was 1.68, 1.40, nd, nd, nd, nd (mean 1.54; controls 0 of 18).
With GFTLNSYGIS, VIYSDGRRTFYVDSVK, GLLAGTFDS the result was nd, 0.90, 1.57, 1.40, 0.43, 0.90 (mean 1.04; controls 0 of 18).
With GFTLNSYGIS, VIYSDGRRTFYIDSVK, GRHAGTFDS the result was nd, nd, nd, 2.22, nd, nd (controls 0 of 18).
With GFSLNQYGIS, VIYSDGRRTFYSDSVK, GQDAGTFDS the result was 0.63, 0.24, 0.28, 0.02, nd, 1.98 (mean 0.63; controls 0 of 18).
With GFELNQYGIS, VIYSDGMRTFYSDSVK, GRAAGTFDS the result was -0.10, 0.31, -0.19, -0.01, 0.14, 0.10 (mean 0.04; controls 0 of 18).
With EFTLESYGIS, VIYADGRRTFYGDSVK, GRAAGTFDS the result was 1.72, 1.38, nd, 1.19, 1.80, 1.14 (mean 1.44; controls 0 of 18).
With GFSLNEMGIS, VIYSDGRRTFYTDSVK, GRFAGTFDS the result was 0.13, -0.02, 0.10, 0.23, 0.28, 0.53 (mean 0.21; controls 2 of 18).
With GFGLNDYGIS, VIYSDGRRTFYIDHVK, GKAAGTFDS the result was nd, nd, nd, nd, nd, nd (controls 0 of 18).
With GFTLNEYGIS, VIYSDGRRTFYTDSVK, GREAGTFDV the result was 0.24, 0.26, -0.74, -0.41, -0.59, 0.54 (mean -0.12; controls 0 of 18).
With GFTLNQYGIS, VIYSDGRRTFYGDSVK, GRQAGTFDS the result was nd, nd, nd, nd, nd, nd (controls 0 of 18).
With GFTLNEYGIS, VIYSDGRRTFYTDSVK, GRYAGTFWS the result was nd, nd, nd, nd, nd, nd (controls 0 of 18).
With GFHLNDYGIS, VIYSDGRRTYYGDSVK, GRAAGTFDS the result was 1.36, 1.01, 0.54, 2.08, 0.40, 1.21 (mean 1.10; controls 0 of 18).
With GFSLNSYGIS, VIYSDGRRTFYDDSVK, GALAGTFDS the result was 0.22, 0.29, 0.32, -0.07, -0.02, 0.14 (mean 0.15; controls 1 of 18).
With GFTLNEYGIS, VIYSDGRRTFYDDSVK, GRSAGTFDS the result was nd, 2.05, 1.72, nd, 3.10, 1.81 (mean 2.17; controls 0 of 18).
With GFTLNDYGIS, VIYSDGRRTFYDDSVK, GRAAGTFES the result was 0.67, 2.53, nd, 1.35, nd, nd (mean 1.52; controls 0 of 18).
With GFTLNSYGIS, VIYSDGQRTFYSDSVK, GRSAGTFDS the result was 0.98, 1.11, 0.84, 1.09, 0.80, 0.82 (mean 0.94; controls 1 of 18).
With GFLLNDYGIS, VIYSDGRRTFYKDSVK, GEAAGTFDS the result was 2.08, 2.02, 0.46, 0.99, 0.36, 0.60 (mean 1.08; controls 0 of 18).
With GFTLNEYGIS, VIYSDGWRTFYHDSVK, GRAAGTFTS the result was nd, 2.67, nd, nd, nd, nd (controls 0 of 18).
With KFTLNEYGIS, VIYSDGRRTFYGDSVK, GRAAVTFDL the result was nd, nd, nd, nd, nd, nd (controls 0 of 18).
With GFTLNEYGIS, VIYADGRRTFYGDSVK, GRAAGTFKL the result was 1.45, 2.38, nd, nd, 2.64, nd (mean 2.16; controls 0 of 18).
With GFTLESYGIS, VIYSDGRRTFYDDSVK, GWGAGTFDS the result was nd, nd, nd, nd, nd, nd (controls 0 of 18).
With GFLLNDYGIS, VIYSDGRRTFYKDSVK, GRTAGTFIS the result was nd, nd, nd, nd, nd, nd (controls 0 of 18).
With GFDLNDYGIS, VIYSDGRRTYYGDSVK, GRAAGTFDS the result was -0.14, 0.20, -0.14, -0.23, 0.64, 0.14 (mean 0.08; controls 1 of 18).

A selection of 6 entries from above:

CDR-H1,CDR-H2,CDR-H3,"log10 Kd, replicates",mean log10 Kd (nM),signal with controls
GFTLNEYGIS,VIYSDGRRTFYTDSVK,GREAGTFDV,"0.24, 0.26, -0.74, -0.41, -0.59, 0.54",-0.12,0 of 18
GFTLNEYGIS,VIYSDGRRTFYGQSVK,GRAAVTFDK,"nd, nd, nd, nd, nd, nd",nd,0 of 18
GFTLDSYGIS,VIYSDGRRTFYIDSVK,GRAAGTFTS,"nd, nd, nd, nd, nd, nd",nd,0 of 18
IFTLESYGIS,VIYADGRRTFYGDSVK,GRAAGTFDS,"0.86, nd, nd, nd, nd, nd",0.86,0 of 18
GFTLNSYGIS,VIYSDGKRTFYSDSVK,GKAGGTFDS,"0.02, 0.64, 1.47, 1.18, 0.19, 0.75",0.71,0 of 18
GFTLNSYGIS,VIYSDGRRTFYSDSVK,GAAVGTFDS,"nd, nd, nd, nd, nd, nd",nd,0 of 18